# Measured values as given in PubChem BioAssay AID2291 (The Scripps Research Institute Molecular Screening Center, 2010).
# Sequences of proteins named here, by UniProt entry; tags and fusion partners are left off.
# UniProt Q9Y570, whole entry: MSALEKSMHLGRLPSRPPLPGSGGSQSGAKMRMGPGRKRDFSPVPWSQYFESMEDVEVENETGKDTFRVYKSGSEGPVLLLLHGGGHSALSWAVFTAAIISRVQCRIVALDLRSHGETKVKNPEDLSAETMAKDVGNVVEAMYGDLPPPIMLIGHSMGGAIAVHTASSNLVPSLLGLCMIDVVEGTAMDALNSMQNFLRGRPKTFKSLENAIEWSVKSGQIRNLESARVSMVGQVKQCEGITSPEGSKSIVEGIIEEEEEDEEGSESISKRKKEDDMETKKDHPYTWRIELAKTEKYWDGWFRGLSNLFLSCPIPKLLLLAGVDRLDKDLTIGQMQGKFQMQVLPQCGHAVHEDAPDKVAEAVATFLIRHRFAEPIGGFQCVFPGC
# The list shows a part of the results, in another mix than the full data. Calls of active or inactive are those of the source. No stated cut-off is given here; in the data, active means inhibition above about 30%; inactive means the rest.
# Target: Protein phosphatase methylesterase 1 (Homo sapiens) (UniProt Q9Y570)
# Assay: inhibitors of human PME-1 in Maybridge library (AID 2291)
# Conditions: recombinant PME-1, FP-Rh probe fluorescence polarization; at 9 µM; hits give high values
row,SMILES,inhibition
1,O=[N+]([O-])C1([N+](=O)[O-])COCOC1,inactive: 1.3%
